## Apparent affinities of Ab-14 variants for a coronavirus HR2 peptide

Values reported by Li et al. 2023, doi:10.1038/s41467-023-39022-2 (FLAb copy).

All variants were tested on one target, the spike HR2 peptide PDVDLGDISGINAS (SARS-CoV-2).

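Phage display of a naive human antibody library on the peptide gave the parent. Designed CDR sequences, proposed from the first random library and measured here. Their group label is 14L_En_HC (En: ensemble of fine-tuned language models; HC: hill climbing; a sequence that several methods proposed may carry one label only). The scFvs were displayed on barcoded MATa yeast, the peptide on MATalpha yeast. After mating in shaken culture at 30 °C for 16 h, diploids were selected and their barcode pairs sequenced. The ratio of observed to expected reads was calibrated, replicate by replicate, on BCL2-family standards whose Kd was known from biolayer interferometry. The assay was run in six technical replicates.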

Parent: Ab-14, a human scFv built as VH, a (GGGGS)3 linker, VL. Only the CDRs of the light chain vary.
VH: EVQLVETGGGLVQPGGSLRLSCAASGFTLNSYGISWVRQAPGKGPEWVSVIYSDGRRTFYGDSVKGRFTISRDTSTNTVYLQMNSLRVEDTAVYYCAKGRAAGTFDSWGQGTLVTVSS
VL: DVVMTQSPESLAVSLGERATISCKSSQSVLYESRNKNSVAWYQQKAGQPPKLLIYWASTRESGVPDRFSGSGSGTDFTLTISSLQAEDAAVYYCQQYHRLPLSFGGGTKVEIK

Variants are written as CDR1, CDR2 and CDR3 of the light chain (limits as in the source). Parent: KSSQSVLYESRNKNSVA, WASTRES, QQYHRLPLS.
Scale: log10 of Kd in nM, estimated from mating counts; low values are strong binders.
Averages over replicates are reported, and they cover detected replicates only.
"ND" marks a missing value. The strain was present, yet no cells mated with the target were sequenced in that replicate, which points to weak or no binding.

| # | CDR-L1 | CDR-L2 | CDR-L3 | replicates, log10 nM | mean log10 Kd (nM) | signal with controls |
|---|---|---|---|---|---|---|
| 1 | QLGATFDMTSKNKNSVA | EQSTREN | QQYHRLPLS | 0.25 0.17 -0.17 -0.16 0.02 0.16 | 0.04 | 1 of 18 (2.90) |
| 2 | KIGQMVTGESLNKNSIA | QMTTREG | QQYHRLPLS | 1.45 0.22 0.87 0.94 0.54 0.54 | 0.76 | 0 of 18 |
| 3 | KISGYLQKESKNKNSVA | EMVNRES | QQYDRLPLS | 0.57 1.82 1.03 1.02 1.01 1.45 | 1.15 | 1 of 18 (4.41) |
| 4 | TISQLMLTESRNKNNVA | GESTRES | QCYHRLPLS | 0.20 0.09 0.22 -0.33 0.00 0.26 | 0.07 | 0 of 18 |
| 5 | KFGQGVHVESIMTNSIA | QTSTREE | QQYDRLPLS | 0.45 0.35 0.47 0.49 0.36 0.83 | 0.49 | 0 of 18 |
| 6 | KLGMTVGYEQRNKSRVA | DNNTREE | QQYDRLPLS | 1.25 1.33 2.16 1.52 1.25 2.55 | 1.68 | 0 of 18 |
| 7 | KLGQSVAMTSRNKNNVA | DLNMRER | QQYHRLPLS | -0.08 -0.29 -0.33 -0.47 -0.36 -0.27 | -0.30 | 0 of 18 |
| 8 | KLYMSTGYESRNEDSIA | DNSTRGR | QQYHRLPLS | 0.03 ND -0.04 0.64 1.05 ND | 0.42 | 0 of 18 |
| 9 | LISGVWDYGSRNYNSVA | QTSTRES | QQYDRLPLI | 0.99 0.47 0.73 0.92 0.44 1.05 | 0.77 | 3 of 18 (1.79) |
| 10 | KLGDSTRFESSNKASIA | DNSTRES | QQYHRLPLS | 0.74 0.85 1.41 1.00 1.07 0.99 | 1.01 | 2 of 18 (3.18) |
| 11 | KLLQNVGTEGRNRNNVA | HMDMRED | QQYWRLPLS | 0.54 0.54 0.95 0.89 0.43 0.23 | 0.60 | 0 of 18 |
| 12 | KLYQSTVIESFNKNNVA | EMTTRES | QSYDRLPLS | ND ND 2.40 ND 2.25 ND | 2.32 | 0 of 18 |
| 13 | KLRMLTLTGGYFKNSVA | QAETREN | QSYHRLPLA | 1.22 0.77 ND 0.99 1.76 0.48 | 1.05 | 0 of 18 |
| 14 | KLSQVTEYEMHNRDNVA | DLTTRGA | QDYHRLPLS | 0.46 0.41 0.27 0.13 0.25 0.59 | 0.35 | 2 of 18 (2.73) |
| 15 | KLSQYVGGESRNKSSLA | DNSTRES | QQYERLPLS | 2.32 1.57 2.07 2.04 ND 2.10 | 2.02 | 2 of 18 (2.80) |
| 16 | KLSMSYRQETEEKNSIA | ELVTRMS | QQYHRLPLS | 1.91 1.10 1.00 0.81 0.77 0.98 | 1.10 | 2 of 18 (2.39) |
| 17 | KLGLVTNGISFSKNSVA | EQSTREN | QQYDRLPLS | 1.56 1.47 1.95 1.37 1.56 2.22 | 1.69 | 2 of 18 (2.66) |
| 18 | MFSQLFMYGSRNYNSVA | QASTRED | QQYHRLPLI | 1.12 0.49 0.80 0.73 0.61 0.87 | 0.77 | 0 of 18 |
| 19 | TISGMANYESTNINSVA | ELTTRGS | QQYERLPLS | 0.21 0.72 0.34 0.44 0.63 0.81 | 0.53 | 0 of 18 |
| 20 | IITQSVMQESRNKRNVA | NTSERES | QQYDRLPLI | 1.10 1.18 0.81 0.99 1.30 0.86 | 1.04 | 1 of 18 (1.98) |
| 21 | TISQSAQMESHNKNSVA | DLNVRGS | QQYDRLPLS | 0.61 0.44 0.44 0.45 0.63 0.56 | 0.52 | 1 of 18 (4.11) |
| 22 | KLLQTVNNGRYNRNNVA | HMTMRED | QQYFRLPLS | 2.08 1.97 1.99 2.64 2.20 1.72 | 2.10 | 0 of 18 |
| 23 | KLREVQHVETKQKNNVA | NNSTRES | QDYYRLPLS | ND 1.57 ND ND ND ND | 1.57 | 0 of 18 |
| 24 | KLLQSVNYGSRAVNSVA | QMETRED | QQYHRLPLS | 1.04 0.76 2.36 0.73 1.79 2.11 | 1.46 | 2 of 18 (1.88) |
| 25 | KLGDMVHTEMRNKNSIA | DMRTRES | QQYYRLPLS | -0.07 -0.23 -0.23 -0.31 -0.30 -0.17 | -0.22 | 0 of 18 |
| 26 | KLYMSTGYESRNQDSIA | DNSTRGR | QQYHRLPLS | 1.55 1.68 1.61 1.00 1.32 1.49 | 1.44 | 2 of 18 (2.49) |
| 27 | ALSQSMDMTSKNVNSVA | DLTTRGN | QQYHRLPLS | 0.07 -0.29 -0.22 -0.44 -0.31 -0.11 | -0.22 | 1 of 18 (3.60) |
| 28 | TLTQSVLMGSHNKNSVA | DLSTRGS | QQYHRLPLS | -0.35 0.15 -0.33 -0.79 -0.50 -0.01 | -0.31 | 1 of 18 (2.24) |
| 29 | KLMQVTGYESYVRNSVA | QMSTRAE | QDYHRLPLS | 1.09 0.92 0.94 0.86 0.99 0.69 | 0.91 | 2 of 18 (2.62) |
| 30 | KISGQYRYEQLSKNSIA | EAQQRLK | QQYHRLPLS | 0.39 0.84 0.90 0.11 0.19 0.89 | 0.55 | 0 of 18 |
| 31 | NITESMYYQSRNKNNIA | EMSTRER | QHYHRLPLS | 0.28 0.09 -0.05 -0.07 -0.02 0.53 | 0.13 | 0 of 18 |
| 32 | TIGQIFNGESRNRNSVA | QASTRES | QSYDRLPLS | 0.26 0.40 0.19 0.10 0.36 0.48 | 0.30 | 2 of 18 (2.58) |
| 33 | ILSQMLLTAGNKHNSVA | QANYREQ | QQYHRLPLS | ND ND ND ND 2.34 ND | 2.34 | 0 of 18 |
| 34 | TLGGVTSYEMQNKNSVA | QMTTRES | QQYTRLPLS | 0.23 -0.04 0.35 -0.26 -0.49 0.04 | -0.03 | 0 of 18 |
| 35 | ILSQMLLTAGNKHSSVA | QANYRES | QQYHRLPLS | ND 1.48 2.22 2.87 1.92 3.61 | 2.42 | 0 of 18 |
| 36 | TVSQVHEMLSRNKNSVA | DMNTRES | QQYDRLPLS | ND ND ND ND ND ND | ND | 0 of 18 |
| 37 | KLSVSYLFESQEKNSIA | ENSTREK | QHYHRLPLS | ND ND ND ND ND 2.73 | 2.73 | 0 of 18 |
| 38 | KLGSATRFESSNKASIA | DNSTREN | QQYHRLPLS | 1.38 1.77 1.27 1.39 2.18 1.13 | 1.52 | 0 of 18 |
| 39 | TLSQLMDMTSHNVNSVA | DLTTRGN | QQYHRLPLS | -0.04 -0.07 0.13 0.02 -0.31 0.14 | -0.02 | 1 of 18 (2.00) |
| 40 | KIAQSMNLTSHHINSVA | QSETRED | QQYNHLPLS | ND 1.40 ND ND ND 2.09 | 1.75 | 0 of 18 |
| 41 | MSYMGDMLESVTRNSVA | NAETRED | QDYHRLPLS | ND 0.90 1.11 0.54 0.81 0.63 | 0.80 | 0 of 18 |
| 42 | KLPLATMQNSVSKNNVA | ELSTRGS | QQYHRLPLS | 0.52 0.41 0.23 0.31 0.41 0.48 | 0.39 | 0 of 18 |
| 43 | KISFQYRYEQLQKNSIA | EVQTRLK | QQYHRLPLS | ND 2.05 2.21 2.22 1.14 1.09 | 1.74 | 0 of 18 |
| 44 | IISQSVLGGYHNKNSVA | QTSERGQ | QQYDRLPLM | 1.53 0.53 0.97 1.10 1.76 1.07 | 1.16 | 0 of 18 |

Excerpt, the first 4 entries:

{"CDR-L1": "QLGATFDMTSKNKNSVA", "CDR-L2": "EQSTREN", "CDR-L3": "QQYHRLPLS", "replicates, log10 nM": "0.25 0.17 -0.17 -0.16 0.02 0.16", "mean log10 Kd (nM)": "0.04", "signal with controls": "1 of 18 (2.90)"}
{"CDR-L1": "KIGQMVTGESLNKNSIA", "CDR-L2": "QMTTREG", "CDR-L3": "QQYHRLPLS", "replicates, log10 nM": "1.45 0.22 0.87 0.94 0.54 0.54", "mean log10 Kd (nM)": "0.76", "signal with controls": "0 of 18"}
{"CDR-L1": "KISGYLQKESKNKNSVA", "CDR-L2": "EMVNRES", "CDR-L3": "QQYDRLPLS", "replicates, log10 nM": "0.57 1.82 1.03 1.02 1.01 1.45", "mean log10 Kd (nM)": "1.15", "signal with controls": "1 of 18 (4.41)"}
{"CDR-L1": "TISQLMLTESRNKNNVA", "CDR-L2": "GESTRES", "CDR-L3": "QCYHRLPLS", "replicates, log10 nM": "0.20 0.09 0.22 -0.33 0.00 0.26", "mean log10 Kd (nM)": "0.07", "signal with controls": "0 of 18"}

Values of this round are not directly comparable with the first-round values of the same sequences.
Three control strains display no target. For all light chain designs, 4% of the pairings with them gave a signal, with a median of 2.64 and one signal in twenty below 1.59, so weak values seen in few replicates may be background. For each scFv, signals with the empty controls are counted beside the result, with their mean in brackets.
The parent sequence was in this pool as ten entries: three were never detected, three once, and four in most replicates, with averages from 0.34 to 2.37.
The authors' rule: three or more of the six replicates give a measured affinity, fewer mean a poor binder.